Data reported in PubChem BioAssay (Tox21).
“And” between values parts separate entries of the source, which are not always exact repeats. Identical values can stand only once. This is a selection; strong and weak results do not stand in their true shares. Inconclusive results are not listed. The source made the active and inactive calls. Unless noted, calls come from the whole dose curve; as a rule, active = well fitted curve in the direction sought with a large enough effect in the repeat runs; inconclusive = weak or mixed curves; inactive = no such curve, though single readings can be large; an effect the other way counts as inactive or inconclusive.

Amino acid sequences for entries named in this document (tags omitted).
UniProt P04150, whole entry: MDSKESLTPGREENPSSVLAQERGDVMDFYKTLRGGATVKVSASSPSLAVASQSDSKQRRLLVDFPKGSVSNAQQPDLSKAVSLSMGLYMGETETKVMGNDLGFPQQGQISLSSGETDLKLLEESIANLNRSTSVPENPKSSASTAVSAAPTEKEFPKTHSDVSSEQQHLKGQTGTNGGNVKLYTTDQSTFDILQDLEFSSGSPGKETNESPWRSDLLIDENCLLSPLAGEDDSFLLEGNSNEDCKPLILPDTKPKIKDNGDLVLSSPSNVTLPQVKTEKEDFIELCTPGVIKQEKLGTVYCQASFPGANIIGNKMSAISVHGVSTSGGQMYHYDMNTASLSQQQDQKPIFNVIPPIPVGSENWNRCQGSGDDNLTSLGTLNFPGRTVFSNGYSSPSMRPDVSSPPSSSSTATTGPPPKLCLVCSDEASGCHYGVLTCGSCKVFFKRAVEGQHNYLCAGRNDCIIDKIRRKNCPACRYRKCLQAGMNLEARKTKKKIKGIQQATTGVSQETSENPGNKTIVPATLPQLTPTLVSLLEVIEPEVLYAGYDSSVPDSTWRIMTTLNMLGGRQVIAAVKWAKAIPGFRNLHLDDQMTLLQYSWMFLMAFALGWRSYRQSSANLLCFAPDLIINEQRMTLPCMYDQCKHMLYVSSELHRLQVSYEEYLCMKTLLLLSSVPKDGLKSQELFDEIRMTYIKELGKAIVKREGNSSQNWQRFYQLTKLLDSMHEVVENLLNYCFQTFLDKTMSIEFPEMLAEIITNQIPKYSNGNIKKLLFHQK
UniProt P10275, whole entry: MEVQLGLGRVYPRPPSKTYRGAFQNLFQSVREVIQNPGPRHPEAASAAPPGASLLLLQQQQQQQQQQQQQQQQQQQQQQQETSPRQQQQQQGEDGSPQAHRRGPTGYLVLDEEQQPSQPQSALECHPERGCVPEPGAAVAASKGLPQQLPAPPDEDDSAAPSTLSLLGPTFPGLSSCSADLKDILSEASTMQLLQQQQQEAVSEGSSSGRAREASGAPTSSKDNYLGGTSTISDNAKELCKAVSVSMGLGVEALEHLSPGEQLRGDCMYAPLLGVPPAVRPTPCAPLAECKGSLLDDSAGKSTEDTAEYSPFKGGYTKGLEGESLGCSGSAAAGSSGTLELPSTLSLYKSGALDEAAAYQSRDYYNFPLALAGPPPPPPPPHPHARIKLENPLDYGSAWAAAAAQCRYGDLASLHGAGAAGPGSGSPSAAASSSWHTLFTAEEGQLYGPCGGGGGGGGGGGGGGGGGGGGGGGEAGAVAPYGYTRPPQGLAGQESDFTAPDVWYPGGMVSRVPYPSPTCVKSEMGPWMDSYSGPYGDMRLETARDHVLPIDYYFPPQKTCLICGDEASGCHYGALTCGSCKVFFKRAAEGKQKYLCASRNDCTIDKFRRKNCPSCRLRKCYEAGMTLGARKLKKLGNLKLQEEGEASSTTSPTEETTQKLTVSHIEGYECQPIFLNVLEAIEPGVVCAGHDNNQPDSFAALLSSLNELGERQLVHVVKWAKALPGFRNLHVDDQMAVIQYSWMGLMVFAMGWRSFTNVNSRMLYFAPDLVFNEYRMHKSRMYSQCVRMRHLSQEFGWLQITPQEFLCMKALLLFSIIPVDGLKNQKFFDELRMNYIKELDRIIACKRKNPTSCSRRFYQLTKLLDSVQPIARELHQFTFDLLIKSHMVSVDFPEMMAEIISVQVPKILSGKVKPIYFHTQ

What was measured:
[1] = qHTS assay to test for compound auto fluorescence at 535 nm (green) in HEK293 cells (AID 720680); conditions: green autofluorescence 485/535 nm; note: % is set by controls: 0 for no effect and ±100 for the full control effect
[2] = qHTS assay to test for compound auto fluorescence at 460 nm (blue) in HEK293 cell free culture (AID 720681); conditions: cell-free medium, autofluorescence 405/460 nm (blue); note: % is set by controls: 0 for no effect and ±100 for the full control effect
Procedure, shortened: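 Compounds were added to cell-free DMEM with 10% FBS and fluorescence read directly. The blue channel used 405 nm excitation and 460 nm emission, with triamterene as the reference fluorophore.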

[3] = qHTS assay to test for compound auto fluorescence at 535 nm (green) in HEK293 cell free culture (AID 720682); conditions: cell-free medium, green autofluorescence 485/535 nm, hits give high values; note: % is set by controls: 0 for no effect and ±100 for the full control effect
Procedure, shortened: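 Green-channel intensity (Ex/Em 485/535 nm) was recorded from compound-treated wells containing only DMEM with 10% FBS. Fluorescein provided the equivalency standard.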

[4] = qHTS assay to test for compound auto fluorescence at 590 nm (red) in HEK293 cell free culture (AID 720683); conditions: cell-free medium autofluorescence, Ex540/Em590 red; note: % is set by controls: 0 for no effect and ±100 for the full control effect
Procedure, shortened: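 Cell-free wells of DMEM with 10% FBS received compound, and intrinsic fluorescence was read at excitation/emission 540/590 nm. Values expressed as equivalence to Rose Bengal sodium.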

[5] = qHTS assay to test for compound auto fluorescence at 590 nm (red) in HepG2 cell free culture (AID 720684); conditions: cell-free medium autofluorescence, red 540/590 nm; note: % is set by controls: 0 for no effect and ±100 for the full control effect
Procedure, shortened: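 Rose Bengal sodium served as the reference for red signal. Test compounds were dispensed into serum-containing MEM (10% FBS) without cells, and plates were read at 540/590 nm.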

[6] = qHTS assay to test for compound auto fluorescence at 460 nm (blue) in HepG2 cell free culture (AID 720685); conditions: Cell-free culture medium, blue autofluorescence 405/460 nm; note: % is set by controls: 0 for no effect and ±100 for the full control effect
Procedure, shortened: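 Cell-free plates of MEM plus 10% FBS received 23 nL compound or DMSO vehicle; blue-channel (405/460 nm) intensity scored against triamterene as reference fluorophore.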

[7] = qHTS assay to test for compound auto fluorescence at 535 nm (green) in HepG2 cell free culture (AID 720686); conditions: Cell-free medium, green autofluorescence 485/535 nm; note: % is set by controls: 0 for no effect and ±100 for the full control effect
[8] = qHTS assay to test for compound auto fluorescence at 460 nm (blue) in HepG2 cells (AID 720687); conditions: autofluorescence 405/460 nm, 1 h; note: % is set by controls: 0 for no effect and ±100 for the full control effect
Procedure, shortened: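 HepG2 cells in MEM with 10% FBS, attached overnight at 37 C, were exposed to compound or DMSO for 1 hr at 37 C, 5% CO2. Blue fluorescence was read at 405/460 nm, with triamterene as reference fluorophore.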

[9] = molecular target: Glucocorticoid receptor (Homo sapiens) (UniProt P04150); assay: qHTS assay to identify small molecule agonists of the glucocorticoid receptor (GR) signaling pathway (AID 720691; active = well fitted activation curve with a large enough effect in the signal ratio in the repeat runs, not every such curve was filed as active; the % refers to the signal ratio; note: % is set by controls: 0 for no effect and ±100 for the full control effect); conditions: GR-bla HeLa, beta-lactamase reporter ratio, 18 h; at 62.4 µM (top of the series)
[10] = qHTS assay for identifying genotoxic compounds that show differential cytotoxicity against isogenic chicken DT40 cell lines with known DNA damage response pathways - Rev3 mutant cell line (AID 743014); conditions: chicken DT40 Rev3-/- viability, CellTiter-Glo, 40 h; series mostly up to 68.4 µM; note: potency is the fitted concentration of half-maximal effect; nearly all actives have a fitted effect of over 55% in size
From the text: (§1) National Center for Advancing Translational Sciences [NCATS]
(§2) NIH Chemical Genomics Center [NCGC]
(§3) U.S. Environmental Protection Agency [EPA]
(§4) National Institutes of Environmental Health Sciences [NIEHS]
(§5) National Toxicology Program [NTP]
(§6) U.S. Food and Drug Administration [FDA]
(§7) DNA repair pathways play a critical role in cellular homeostasis by repairing DNA damage induced by endogenous processes and xenobiotics. Isogenic chicken DT40 cell lines deficient in different DNA repair pathways can be used to identify genotoxic compounds and aid in characterizing the nature of the DNA damage induced. Two DNA repair-deficient cell lines with disrupted genes, Rad54/Ku70 or Rev3, were used to screen the Tox21 10K compound library. Possible genotoxicity was based on the presence of a significant increase in cytotoxicity in one or more of the DNA repair-deficient cell lines compared to that observed in the parental DNA repair-proficient cell line. CellTiter Glo viability assay (Promega, Madison, WI) was used to measure cell viability in these cells after compound treatment. This assay includes the data from the Rev3 mutant cell line.
(§8) Tox21 Assay Protocol Summary:
(§9) 300 DT40 mutant cells in 5 uL/well were dispensed into white, solid-bottom 1536-well plates using a Multidrop Combi (ThermoFisher Scientific, Waltham, MA) dispenser. After the assay plates were incubated at 37 C/5% CO2 for approximately 0.5 hour, 23 nL of compounds dissolved in DMSO, positive controls or DMSO only was transferred into the assay plate by a pintool work station (Kalypsys, San Diego, CA). The assay plates were incubated at 37 C/5% CO2 for 40 hours. After 5 uL per well of CellTiter-Glo reagent was added into each well of the assay plates, the plates were incubated for 30 min at room temperature and the luminescence intensity of the plates was measured using a ViewLux (PerkinElmer, Shelton, CT) plate reader.

[11] = molecular target: Glucocorticoid receptor (Homo sapiens) (UniProt P04150); assay: qHTS assay to identify small molecule antagonists of the glucocorticoid receptor (GR) signaling pathway (AID 720692; active = well fitted inhibition curve with a large enough effect in the signal ratio in the repeat runs, not every such curve was filed as active; the % refers to the signal ratio; note: % is set by controls: 0 for no effect and ±100 for the full control effect); conditions: GR-bla HeLa, beta-lactamase FRET ratio, dexamethasone-stimulated, 18 h; at 58.5 µM (top of the series)
[12] = qHTS assay to identify small molecule antagonists of the glucocorticoid receptor (GR) signaling pathway - cell viability counter screen (AID 720693); conditions: GR-bla HeLa viability, CellTiter-Glo luminescence, 18 h, with 5 nM dexamethasone present; at 58.5 µM (top of the series); note: % is set by controls: 0 for no effect and ±100 for the full control effect; nearly all actives have a fitted effect of over 55% in size
[13] = qHTS assay for identifying genotoxic compounds that show differential cytotoxicity against isogenic chicken DT40 cell lines with known DNA damage response pathways - wild type cell line (AID 743012); conditions: DT40 wild type chicken cells viability, CellTiter-Glo, 40 h; series mostly up to 68.4 µM; note: potency is the fitted concentration of half-maximal effect; nearly all actives have a fitted effect of over 60% in size
Procedure, shortened: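 300 wt DT40 cells/well; cpd (DMSO) pintool-transferred after ~0.5 h at 37 C/5% CO2; 40 h incubation; CellTiter-Glo added, 30 min RT; luminescence read.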

[14] = qHTS assay for identifying genotoxic compounds that show differential cytotoxicity against isogenic chicken DT40 cell lines with known DNA damage response pathways - Rad54/Ku70 mutant cell line (AID 743015); conditions: DT40 Rad54/Ku70 mutant viability, CellTiter-Glo, 40 h; series mostly up to 66.8 µM; note: potency is the fitted concentration of half-maximal effect; nearly all actives have a fitted effect of over 60% in size
From the text: as §1, §2, §3, §4, §5, §6
as §7, with “the Rad54/Ku70” for “the Rev3”
as §8, §9

[15] = molecular target: Androgen receptor (Homo sapiens) (UniProt P10275); assay: qHTS assay to identify small molecule agonists of the androgen receptor (AR) signaling pathway (AID 743036; active = well fitted activation curve with a large enough effect in the signal ratio in the repeat runs, with a control signal flat, not every such curve was filed as active; the % refers to the signal ratio; note: % is set by controls: 0 for no effect and ±100 for the full control effect); conditions: HEK293 AR-UAS-bla GripTite, beta-lactamase FRET ratio, 16 h; at 62.4 µM (top of the series)
[16] = molecular target: Androgen receptor (Homo sapiens) (UniProt P10275); assay: qHTS assay to identify small molecule agonists of the androgen receptor (AR) signaling pathway using the MDA cell line (AID 743040; note: % is set by controls: 0 for no effect and ±100 for the full control effect; nearly all actives have a fitted effect of over 20% in size); conditions: MDA-kb2 AR-luc cells, MMTV luciferase, 16 h, hits give high values; at 70.3 µM (top of the series)

Question: Which fluorescence, % of fluorescein ([1]; at 46 µM (top of the series)) does the source give for CN(CCCl)CCCl here?
Answer: inactive: -0.0555%

Question: What about the fluorescence, % of fluorescein ([1]; at 91.3 µM (top of the series)) of the same molecule?
Answer: inactive: 0.008%

Question: And the fluorescence, % of fluorescent control ([2]; at 46 µM (top of the series))?
Answer: inactive: -0.0378%

Question: What about the fluorescence, % of fluorescent control ([2]; at 91.3 µM (top of the series)) of the same molecule?
Answer: inactive: -0.0763%

Question: What about the activity change ([3]; at 46 µM (top of the series)) of the same molecule?
Answer: inactive: 0.0802%

Question: And the activity change ([3]; at 91.3 µM (top of the series))?
Answer: inactive: -0.127%

Question: What about the fluorescence, % of fluorescent control ([4]; at 46 µM (top of the series)) of the same molecule?
Answer: inactive: -0.337%

Question: And the fluorescence, % of fluorescent control ([4]; at 91.3 µM (top of the series))?
Answer: inactive: -0.451%

Question: What about the fluorescence, % of Rose Bengal ([5]; at 46 µM (top of the series)) of the same molecule?
Answer: inactive: -0.308%

Question: What about the fluorescence, % of Rose Bengal ([5]; at 91.3 µM (top of the series)) of the same molecule?
Answer: inactive: -0.476%

Question: And the fluorescence, % of fluorescent control ([6]; at 46 µM (top of the series))?
Answer: inactive: -0.005%

Question: And the fluorescence, % of fluorescent control ([6]; at 91.3 µM (top of the series))?
Answer: inactive: -0.0814%

Question: And the fluorescence, % of fluorescein control ([7]; at 46 µM (top of the series))?
Answer: inactive: -0.0627%

Question: And the fluorescence, % of fluorescein control ([7]; at 91.3 µM (top of the series))?
Answer: inactive: -0.0098%

Question: What about the fluorescence, % of fluorescent control ([8]; at 46 µM (top of the series)) of the same molecule?
Answer: inactive: -0.2%

Question: What about the fluorescence, % of fluorescent control ([8]; at 91.3 µM (top of the series)) of the same molecule?
Answer: inactive: 0.0122%

Question: And the activation [9]?
Answer: inactive: -8.45%

Question: What about the Potency [10] of the same molecule?
Answer: active: 5.96 µM and active: 3.85 µM

Question: What does the source list for CCC(=O)N(c1ccccc1)C1(COC)CCN(CCc2cccs2)CC1?
Answer: fluorescence, % of fluorescein ([1]; at 91.3 µM (top of the series)): inactive: -0.0434%; fluorescence, % of fluorescent control ([2]; at 91.3 µM (top of the series)): inactive: 0.0219%; activity change ([3]; at 91.3 µM (top of the series)): inactive: 0.0788%; fluorescence, % of fluorescent control ([4]; at 91.3 µM (top of the series)): inactive: 0.353%; fluorescence, % of Rose Bengal ([5]; at 91.3 µM (top of the series)): inactive: 0.0245%; fluorescence, % of fluorescent control ([6]; at 91.3 µM (top of the series)): inactive: -0.0139%; fluorescence, % of fluorescein control ([7]; at 91.3 µM (top of the series)): inactive: 0.0084%; fluorescence, % of fluorescent control ([8]; at 91.3 µM (top of the series)): inactive: -0.0847%; activation [9]: inactive: -3.78%; activity change, negative = inhibition [11]: inactive: -22.7%; viability change, negative = cytotoxic [12]: inactive: -2.28%; Potency [13]: active: 4.32 µM; Potency [10]: active: 21.7 µM; Potency [14]: active: 19.3 µM; activation [15]: inactive: -3.38%; activity change [16]: inactive: -6.85%
